Experimental data: patent US4228187A, “Alkyl and cycloalkylthiophenylalkylaminoalkanols, their salts and the preparation thereof” (priority 1973, dated 1980)

System: peripheral vasodilatatory activity
Assay: Vasodilatory effect after intraarterial injection in dog
Type: in vivo

Compound: COc1ccc(Cc2nccc3cc(OC)c(OC)cc23)cc1OC [papaverine, reference compound]
- Half-life (of vasodilatory effect) (10 μg/kg): 19 s
- Half-life (of vasodilatory effect) (20 μg/kg): 25 s
- Half-life (of vasodilatory effect) (30 μg/kg): 26 s
